# Reference: patent publication US20160052955A1, “[…] INHIBITORS FOR TREATING CANCERS” (SLOAN-KETTERING INSTITUTE FOR CANCER RESEARCH, priority 2013, published 2016)
# Sequences of proteins named here, by UniProt entry; tags and fusion partners are left off. Residues count along the entry.
# UniProt Q99873, 10-352 isoform Q99873-3: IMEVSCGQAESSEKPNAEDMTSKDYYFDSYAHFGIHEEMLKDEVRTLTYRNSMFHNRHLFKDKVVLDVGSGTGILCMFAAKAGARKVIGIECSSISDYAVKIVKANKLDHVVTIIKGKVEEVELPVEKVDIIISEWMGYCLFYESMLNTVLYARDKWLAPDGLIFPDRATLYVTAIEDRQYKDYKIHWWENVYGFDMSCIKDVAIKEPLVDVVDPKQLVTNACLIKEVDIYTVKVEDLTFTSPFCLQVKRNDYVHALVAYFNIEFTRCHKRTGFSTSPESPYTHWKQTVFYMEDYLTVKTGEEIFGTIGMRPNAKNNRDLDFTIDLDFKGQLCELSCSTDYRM
# Biological target: T1, PRMT1 (10-352) (Homo sapiens, UniProt Q99873)
# T1 construct: PRMT1 (10-352)
# Experiment: Filter-paper methyltransferase assay, PRMT1
# Format: biochemical
structure (smiles),measurement,value
"Nc1ncnc2c1ncn2[C@@H]1O[C@H](C[C@@H](N)CC[C@H](N)C(=O)O)[C@@H](O)[C@H]1O [Sinefungin, sinefungin, reference compound]",IC50,1030 nM
